Chains of the proteins cited; added tags and fusions are not shown. Residues count along the entry.
UniProt P01026, 25-1663: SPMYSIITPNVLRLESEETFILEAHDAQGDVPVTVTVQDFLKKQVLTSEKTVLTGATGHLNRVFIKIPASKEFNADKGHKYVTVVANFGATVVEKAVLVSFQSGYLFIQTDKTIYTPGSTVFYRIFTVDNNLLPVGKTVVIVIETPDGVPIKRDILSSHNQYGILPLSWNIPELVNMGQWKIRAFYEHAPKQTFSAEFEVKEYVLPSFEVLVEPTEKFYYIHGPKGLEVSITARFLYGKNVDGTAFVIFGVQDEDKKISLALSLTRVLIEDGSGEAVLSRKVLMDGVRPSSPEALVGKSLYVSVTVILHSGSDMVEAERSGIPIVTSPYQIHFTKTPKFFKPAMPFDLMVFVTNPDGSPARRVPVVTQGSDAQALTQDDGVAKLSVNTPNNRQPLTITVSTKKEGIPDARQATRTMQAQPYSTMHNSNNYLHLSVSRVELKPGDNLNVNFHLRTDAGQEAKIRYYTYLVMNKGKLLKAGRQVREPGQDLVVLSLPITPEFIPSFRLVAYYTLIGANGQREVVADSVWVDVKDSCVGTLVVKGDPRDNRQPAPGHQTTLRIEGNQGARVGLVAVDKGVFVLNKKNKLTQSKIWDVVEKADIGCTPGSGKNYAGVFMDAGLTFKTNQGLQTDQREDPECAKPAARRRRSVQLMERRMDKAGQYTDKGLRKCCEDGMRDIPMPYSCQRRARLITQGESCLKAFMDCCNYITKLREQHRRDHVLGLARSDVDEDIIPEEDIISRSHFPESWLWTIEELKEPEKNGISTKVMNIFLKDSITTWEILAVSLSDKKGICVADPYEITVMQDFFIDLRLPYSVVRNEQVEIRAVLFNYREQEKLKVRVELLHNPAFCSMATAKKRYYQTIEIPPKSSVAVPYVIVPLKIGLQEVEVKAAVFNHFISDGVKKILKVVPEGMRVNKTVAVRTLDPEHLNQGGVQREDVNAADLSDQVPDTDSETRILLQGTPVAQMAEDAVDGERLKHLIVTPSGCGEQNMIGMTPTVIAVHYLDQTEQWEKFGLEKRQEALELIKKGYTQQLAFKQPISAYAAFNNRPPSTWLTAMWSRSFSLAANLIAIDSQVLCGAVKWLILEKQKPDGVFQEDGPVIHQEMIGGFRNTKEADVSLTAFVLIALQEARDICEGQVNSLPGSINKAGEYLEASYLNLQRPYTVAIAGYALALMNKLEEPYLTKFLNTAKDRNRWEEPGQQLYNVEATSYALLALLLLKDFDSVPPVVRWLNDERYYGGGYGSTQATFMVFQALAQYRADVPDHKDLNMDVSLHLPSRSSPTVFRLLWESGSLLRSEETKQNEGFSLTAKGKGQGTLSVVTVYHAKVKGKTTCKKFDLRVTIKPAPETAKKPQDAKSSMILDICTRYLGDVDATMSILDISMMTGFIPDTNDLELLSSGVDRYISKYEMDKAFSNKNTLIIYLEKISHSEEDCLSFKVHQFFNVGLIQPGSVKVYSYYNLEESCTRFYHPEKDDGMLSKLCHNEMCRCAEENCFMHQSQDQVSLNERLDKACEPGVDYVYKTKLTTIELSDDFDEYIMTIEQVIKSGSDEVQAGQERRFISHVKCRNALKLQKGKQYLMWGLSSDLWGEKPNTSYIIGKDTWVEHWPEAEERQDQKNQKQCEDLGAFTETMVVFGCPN
UniProt P01024, 23-1663: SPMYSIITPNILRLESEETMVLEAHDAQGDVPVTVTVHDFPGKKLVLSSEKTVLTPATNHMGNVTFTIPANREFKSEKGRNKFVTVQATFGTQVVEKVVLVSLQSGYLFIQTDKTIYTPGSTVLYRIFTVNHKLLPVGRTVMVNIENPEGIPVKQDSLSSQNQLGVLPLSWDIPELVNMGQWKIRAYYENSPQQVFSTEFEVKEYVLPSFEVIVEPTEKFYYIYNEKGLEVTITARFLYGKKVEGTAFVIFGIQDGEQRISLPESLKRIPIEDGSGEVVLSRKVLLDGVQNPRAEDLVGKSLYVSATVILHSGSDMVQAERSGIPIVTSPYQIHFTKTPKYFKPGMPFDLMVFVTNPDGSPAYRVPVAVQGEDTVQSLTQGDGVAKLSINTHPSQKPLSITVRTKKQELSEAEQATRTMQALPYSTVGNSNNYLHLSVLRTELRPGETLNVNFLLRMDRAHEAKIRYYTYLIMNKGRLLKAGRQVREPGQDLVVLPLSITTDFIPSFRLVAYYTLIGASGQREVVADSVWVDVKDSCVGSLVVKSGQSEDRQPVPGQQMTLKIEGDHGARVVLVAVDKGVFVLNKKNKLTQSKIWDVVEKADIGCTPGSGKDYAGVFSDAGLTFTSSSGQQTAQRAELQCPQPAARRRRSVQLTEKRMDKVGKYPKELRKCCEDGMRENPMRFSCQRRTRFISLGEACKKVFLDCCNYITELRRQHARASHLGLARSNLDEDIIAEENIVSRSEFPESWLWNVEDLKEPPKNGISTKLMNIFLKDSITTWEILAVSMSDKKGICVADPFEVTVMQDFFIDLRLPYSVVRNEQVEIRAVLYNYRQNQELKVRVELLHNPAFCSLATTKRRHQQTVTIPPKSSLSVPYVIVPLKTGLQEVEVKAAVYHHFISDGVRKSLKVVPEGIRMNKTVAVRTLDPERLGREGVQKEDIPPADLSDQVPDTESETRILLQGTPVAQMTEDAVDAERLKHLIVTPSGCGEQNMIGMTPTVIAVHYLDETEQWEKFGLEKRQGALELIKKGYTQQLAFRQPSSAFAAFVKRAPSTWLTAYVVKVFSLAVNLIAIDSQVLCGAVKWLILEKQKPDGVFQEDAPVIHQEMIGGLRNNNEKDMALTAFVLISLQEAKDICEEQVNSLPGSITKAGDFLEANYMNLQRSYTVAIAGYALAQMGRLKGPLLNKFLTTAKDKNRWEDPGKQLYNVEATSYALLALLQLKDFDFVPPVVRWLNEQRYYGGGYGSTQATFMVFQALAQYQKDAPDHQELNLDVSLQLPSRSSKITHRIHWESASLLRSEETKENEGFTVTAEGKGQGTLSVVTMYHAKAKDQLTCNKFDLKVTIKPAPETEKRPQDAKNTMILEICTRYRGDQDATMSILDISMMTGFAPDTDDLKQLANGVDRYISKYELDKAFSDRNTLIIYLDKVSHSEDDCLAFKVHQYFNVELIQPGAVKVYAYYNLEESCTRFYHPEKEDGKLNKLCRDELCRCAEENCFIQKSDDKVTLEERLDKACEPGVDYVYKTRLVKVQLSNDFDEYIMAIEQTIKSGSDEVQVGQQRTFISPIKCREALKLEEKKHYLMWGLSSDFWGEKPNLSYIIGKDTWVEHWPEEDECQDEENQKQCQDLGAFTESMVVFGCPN

In publication PMC10870435, “A novel complement C3 inhibitor CP40-KK protects against experimental pulmonary arterial hypertension via an inflammasome NLRP3 associated pathway” (Journal of Translational Medicine, 2024):

Legend:
Rat complement C3 = molecular target: T1, Rat complement C3 (Rattus norvegicus, UniProt P01026); test: SPR (LSPR) binding to immobilized rat complement C3
T1 construct: purchased ProSpec PRO-2706

Human complement C3 = molecular target: T2, Human complement C3 (Homo sapiens, UniProt P01024); test: SPR (LSPR) binding to immobilized human complement C3
T2 construct: purchased ProSpec PRO-2684

CC[C@H](C)[C@H](N)C(=O)N[C@H]1CSSC[C@@H](C(=O)N[C@H](C(N)=O)[C@@H](C)O)NC(=O)[C@H](CCCN=C(N)N)NC(=O)[C@H](Cc2cnc[nH]2)NC(=O)[C@H](Cc2cnc[nH]2)NC(=O)CNC(=O)[C@H](Cc2c[nH]c3ccccc23)NC(=O)[C@H](CC(=O)O)NC(=O)[C@H](CCC(N)=O)NC(=O)[C@H](C(C)C)NC(=O)[C@H](C(C)C)NC1=O [compstatin]
Kd (Rat complement C3): 95.2 µM | Kd (Human complement C3): 15.6 µM
